For 1 molecule, IC50 results are on record in ChEMBL document CHEMBL1134554, “Design, synthesis, and structure-activity relationships of macrocyclic hydroxamic acids that inhibit tumor necrosis factor alpha release in vitro and in vivo” (J Med Chem, 2001).

Chains of the proteins cited; added tags and fusions are not shown. Lines headed by an entry give the natural chain unless they say otherwise; changes in a name come on top.
UniProt P78536: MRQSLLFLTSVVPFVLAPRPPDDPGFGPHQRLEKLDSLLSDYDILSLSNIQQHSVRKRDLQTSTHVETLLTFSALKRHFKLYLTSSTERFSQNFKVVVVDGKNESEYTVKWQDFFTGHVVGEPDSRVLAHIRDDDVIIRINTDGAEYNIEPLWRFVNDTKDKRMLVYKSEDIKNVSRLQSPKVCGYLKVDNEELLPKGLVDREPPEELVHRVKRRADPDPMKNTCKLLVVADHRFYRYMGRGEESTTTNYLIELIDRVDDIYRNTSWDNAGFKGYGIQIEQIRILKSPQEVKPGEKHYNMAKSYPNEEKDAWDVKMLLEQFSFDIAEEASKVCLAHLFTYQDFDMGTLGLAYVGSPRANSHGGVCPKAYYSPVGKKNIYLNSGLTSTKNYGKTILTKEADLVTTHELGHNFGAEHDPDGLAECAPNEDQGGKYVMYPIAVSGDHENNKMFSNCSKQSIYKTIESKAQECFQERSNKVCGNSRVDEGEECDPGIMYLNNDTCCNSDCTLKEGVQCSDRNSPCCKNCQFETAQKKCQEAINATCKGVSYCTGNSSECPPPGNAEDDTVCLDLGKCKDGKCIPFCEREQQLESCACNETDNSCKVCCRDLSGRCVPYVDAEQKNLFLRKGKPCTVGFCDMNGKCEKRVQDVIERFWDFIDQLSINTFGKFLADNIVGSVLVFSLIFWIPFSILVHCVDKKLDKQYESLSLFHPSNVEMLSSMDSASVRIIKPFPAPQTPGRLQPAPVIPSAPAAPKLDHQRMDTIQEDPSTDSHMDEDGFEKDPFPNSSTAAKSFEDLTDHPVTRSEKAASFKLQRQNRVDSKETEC

This assay deals with Disintegrin and metalloproteinase domain-containing protein 17 (Homo sapiens, UniProt P78536).

For the molecule `CNC(=O)[C@@H](NC(=O)[C@H](CC(C)C)[C@H](O)C(=O)NO)C(C)(C)C`, half-maximal inhibition (IC50) required 4.1 µM.
